Data on one molecule can be found in patent EP4831299A1, “VIDEO DISPLAY TERMINAL ASSOCIATED DRY EYE DISEASE DIAGNOSTIC BIOMARKER BASED ON EPITHELIAL-MESENCHYMAL TRANSITION AND FIBROSIS, AND THERAPEUTIC DRUG” (dated 2026).

Molecules are shown by their SMILES.

In test [1] the test system is VDT-associated dry eye disease model mice. The test can be described thus: Corneal fluorescein sodium staining in ICES mouse model of VDT-associated dry eye disease. As to conditions: 0.5% eye drops, summary statement. Here is the method:
• 1) Preparation of 0.5% Anti-Fibrotic Agent Solution: • (1) 20 mg of anti-fibrotic agent was weighed; • (2) the agent was completely dissolved in 40 µL DMSO; • (3) normal saline was slowly added to a total volume of 4 mL; and • (4) the solution was placed on a shaker overnight to ensure thorough mixing; final concentration: 0.5% (w/v). • 2) Preparation of Control Vehicle Solution: • (1) 40 µL DMSO was measured; • (2) normal saline was added to a total volume of 4 mL; and • (3) mixed gently.
(§1) This example used the Intelligent Controlled Environment System (ICES) to establish a mouse model of VDT-associated dry eye disease. Mice were placed in the ICES under adverse conditions simulating a VDT environment for 2 weeks to induce VDT-associated dry eye disease formation. After modeling was completed, mice continued to be raised under ICES conditions to maintain the VDT-associated dry eye disease state, more closely resembling real-world conditions. […]
0.5 µL of 5% fluorescein sodium solution was instilled into the conjunctival sac of mice using a micropipette. […] Scoring was recorded by a fixed examiner in a masked manner, according to the National Eye Institute standard grading system. […] Each region was scored 0-4 grade (0: no punctate staining; 1 grade: 1-5 punctate stains; 2 grade: 6-15 punctate stains; 3 grade: 16-30 punctate stains; 4 grade: 30 or more punctate stains). […]

In another test the test system is Twist1. The test can be described thus: Real-time quantitative PCR of conjunctival tissue, Twist1. As to conditions: qPCR, n=4, 0.5% eye drops twice daily. Here is the method: Total RNA was extracted from conjunctival tissue according to the manufacturer's instructions (Cat: 74106, RNeasy mini kit, Qiagen, Crawley, U.K.). cDNA was synthesized from 0.5 µg of total RNA using random primers and M-MLV reverse transcriptase (Cat: 28025013, Applied Biosystems, Paisley, UK). Quantitative real-time polymerase chain reaction (qRT-PCR) analysis was performed using Power SYBR Green PCR Master Mix (Cat: A25742, Applied Biosystems, Paisley, UK) and Applied Biosystems Quant Studio 6 Real-Time PCR System (Applied Biosystems, Paisley, UK). Results were analyzed using the comparative threshold cycle (CT) method and normalized with GAPDH as an endogenous reference.
• Twist1: forward, 5'-[…]-3'; reverse, 5'-[…]-3'; • IL-1β: forward, 5'-[…]-3', reverse, 5'-[…]-3'; • IL-17a: forward, 5'-[…]-3', reverse, 5'-[…]-3'; • IFNγ: forward, 5'-[…]-3', reverse, 5'-[…]-3'; • TNFα: forward, 5'-[…]-3', reverse, 5'-[…]-3'.
as §1
A general note: In qPCR the cycle at which signal appears reflects the starting amount.

Another test deals with CCL2. The test can be described thus: Flow cytometry of conjunctival tissue, CCL2 expression of CK PAN / CD140a cells. As to conditions: fibroblast-like epithelial cells of conjunctiva, n=3, 0.5% eye drops. The method, then:
After euthanizing the mice, the palpebral and bulbar conjunctiva were excised to obtain conjunctival tissue. Conjunctival tissue from three mice per group was pooled as one sample and stored in MACS Tissue Storage Solution (Miltenyi Biotec). The samples were washed in phosphate-buffered saline containing 20 mM EDTA and shaken at 37°C for 15 minutes. The tissues were then cut into fragments and digested in RPMI 1640 medium (Thermo Fisher Scientific) containing collagenase IV (Gibco; 1000 U/mL) at 37°C for 30 minutes, followed by filtration through a 70 µm cell strainer. Red blood cells and dead cells were removed using red blood cell lysis buffer (Sigma Aldrich) and Dead Cell Removal Kit (Miltenyi Biotec), respectively. 10 µL of the suspension was counted under an inverted microscope using a hemocytometer. Cells were observed under a microscope after trypan blue staining.
Single-cell suspensions were prepared as described above. For cell surface staining, cells were blocked with CD16/32 FcR-block (Cat: 101302, BioLegend) for 10 minutes. After staining with Fixable Viability Stain (Cat: 564406, BD), cells were stained with surface markers at 4°C for 30 minutes. […] Flow cytometry data were analyzed using Flowjo software (version 10.5.3, BD). […]

The subject of test [2] is immune cell infiltration in the conjunctival stroma. As to the kind of experiment: Immunofluorescence of conjunctiva, anti-CD45 staining. The settings on record: n=3, 0.5% eye drops. Here is the method: Conjunctival tissue and eyeballs from three mice per group were embedded in Optimal Cutting Temperature compound (Cat: 4583, SAKURA) and frozen in liquid nitrogen. The samples were then sectioned into 10 µm-thick sections and stored at -80°C. For staining, sections were thawed at room temperature. After thawing, they were fixed in 4% formaldehyde for 15 minutes. Then, sections were blocked with blocking buffer (Cat: ab64226, Abcam) containing 0.4% Triton X-100 (Cat: T8787, Sigma Aldrich) at room temperature for >60 minutes. Subsequently, sections were incubated with primary antibodies and corresponding fluorescently conjugated secondary antibodies according to the manufacturer's recommended sequence. 4',6-Diamidino-2-phenylindole (Cat: S36938, DAPI, Invitrogen) was added for 5 minutes. Images were captured using a laser scanning confocal microscope (LSM880, Carl Zeiss Meditec, Sartrouville, Germany).
anti-IGFBP2 antibody (dilution: 1:500, Cat: ab188200, abcam), anti-CD45 antibody (dilution: 1:200, Cat: MAB114, R&D Systems). Other antibodies were as described in Example 1.
This example used the Intelligent Controlled Environment System (ICES) to establish a mouse model of VDT-associated dry eye disease. Mice were placed in the ICES under adverse conditions simulating a VDT environment for 2 weeks to induce VDT-associated dry eye disease formation. […]

As to `Cc1ccc(=O)n(-c2ccccc2)c1`, in test [1], the corneal damage entry is “significantly improve”. In addition, the “expression level of Twist1” value with Twist1 is “significantly downregulated”. For the same molecule, in the test on CCL2, the CCL2 expression entry is recorded as “reduce”. Further, the immune cell infiltration entry in test [2] is “reduce”.
